## Antibody variant affinities, Ab-14 heavy chain, assay B

The measurements come from Li et al. 2023 (doi:10.1038/s41467-023-39022-2) through the FLAb antibody collection.

All variants were tested on one target, the spike HR2 peptide PDVDLGDISGINAS (SARS-CoV-2).

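Phage display of a naive human antibody library on the peptide gave the parent. Designed CDR sequences, proposed from the first random library and measured here. Group labels follow the data file (Ctrl: baseline library sampled from a position-specific scoring matrix, with some repeated check sequences; Rand: our label for a block that the file lists under HC and that is probably the random mutants of the ten best first-round binders; En: ensemble of fine-tuned language models; GP: Gaussian process model; GPLM: also part of the Gaussian process libraries; HC: hill climbing; Gen: genetic algorithm; Gibbs: Gibbs sampling; a sequence that several methods proposed may carry one label only). The scFvs were displayed on barcoded MATa yeast, the peptide on MATalpha yeast. The frequency of each diploid, read from paired DNA barcodes, reflects how well the two displayed proteins bind. Scores were corrected for input abundance and mapped to Kd with protein pairs of known affinity run in the same pool. Mating was done six times.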

Each scFv is VH, a (GGGGS)3 linker, VL, as in the parent Ab-14, and differs from it in the CDRs of the heavy chain only.
VH: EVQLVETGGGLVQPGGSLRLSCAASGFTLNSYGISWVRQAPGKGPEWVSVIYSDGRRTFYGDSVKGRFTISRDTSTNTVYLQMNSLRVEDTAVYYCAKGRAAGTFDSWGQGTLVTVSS
VL: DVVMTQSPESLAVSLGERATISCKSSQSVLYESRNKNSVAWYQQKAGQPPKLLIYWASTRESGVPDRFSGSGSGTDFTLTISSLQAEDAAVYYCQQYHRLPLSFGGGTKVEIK

The parent's heavy chain CDRs are GFTLNSYGIS, VIYSDGRRTFYGDSVK, GRAAGTFDS; each variant's own CDRs replace them letter for letter.
The read-out is the apparent dissociation constant on a log10 scale (nM): the lower, the stronger.
The mean shown is taken over the replicates in which the pair was detected.
An entry "nd" has no value in the source: the pair was not observed among the diploids in any replicate. This suggests poor binding but is not conclusive.
Three control strains display no target. For all heavy chain designs, 1% of the pairings with them gave a signal, with a median of 2.08 and one signal in twenty below 0.84, so weak values seen in few replicates may be background. Also given: how often the same scFv was detected with the empty control strains.
The authors averaged sequences with at least three values out of six and counted those with two or fewer as poor binders.
A sequence measured in both rounds can read differently, since the two assays cover different ranges.

| CDR-H1 | CDR-H2 | CDR-H3 | group | log10 Kd (nM), mean | detected | signal with controls |
|---|---|---|---|---|---|---|
| GFNLNSYGIS | VIYSDGRRTFYFDSVK | GRTAGTFDS | GP_Gen | 1.72 | 1 of 6 | 0 of 18 |
| GFDLDEYGIS | VIYADGSRTAYADSVK | GTNAGTFDV | En_Gen | 0.31 | 6 of 6 | 1 of 18 |
| GNDINEYGIS | VIYADGMRTAYLNDVK | GQMAGLFIM | En_Gibbs | nd | 0 of 6 | 0 of 18 |
| SFDLNSYGIS | VIYSDGRRTFYGDSVK | GRTAGTFDS | GPLM_Gibbs | 2.01 | 2 of 6 | 0 of 18 |
| GFELNDYGIS | VIYSDGRRTFYGDSVK | GRQAGTFDS | GPLM_Gibbs | 0.97 | 6 of 6 | 2 of 18 |
| GFDLDEYGIS | VIYADGKRTAYSDSVK | GTNAGTFDV | En_Gen | -0.72 | 6 of 6 | 0 of 18 |
| GFDLNEYGIS | VIYADGMRTAYTDSVK | GENAGTFDT | En_Gen | 0.33 | 6 of 6 | 0 of 18 |
| GFTLNSYGIS | VIISDGRRTFYGGSVK | GRAAGTDNS | Ctrl | nd | 0 of 6 | 0 of 18 |
| GFDLNEYGIS | VIYADGRRTFYQDSVK | GEAAGTFDS | En_HC | 1.05 | 5 of 6 | 0 of 18 |
| GFDLNEYGIS | VIYADGMRTAYADNVK | GNQAGTFDV | En_Gen | nd | 0 of 6 | 0 of 18 |
| GQDLDEYGVS | VIYADGQRTQYTNDVK | GNYSGAFII | En_Gibbs | nd | 0 of 6 | 0 of 18 |
| GKHLDEYGIS | VIYADGQRVFYSDTVK | GNQGFTVDV | En_Gibbs | nd | 0 of 6 | 0 of 18 |
| GFDLNEYGIS | VIYADGKRTAYSDSVK | GNTAGTFDM | En_Gen | -0.19 | 6 of 6 | 0 of 18 |
| GFDLDEYGIS | VIYADGVRTAYADNVK | GETAGTFDV | En_Gen | -0.35 | 6 of 6 | 1 of 18 |
| GFELDEYGIS | VIYADGARTGYVDNVK | GEAGIDFHV | En_Gibbs | nd | 0 of 6 | 0 of 18 |
| GFDLNEYGIS | VIYADGRRTAYKDSVK | GQVAGTFDS | En_HC | -0.55 | 6 of 6 | 0 of 18 |
| GFTLNSQGIS | VIYSDGRRTFYGDKVK | GRAAGTFDS | Ctrl | nd | 0 of 6 | 0 of 18 |
| GFTLNDYGIS | VIYSDGRRTQYIDSVK | GRAAGEFDS | Rand | nd | 0 of 6 | 0 of 18 |
| GKSVDEYGIS | VIYADGMRAEYQDSVK | GHTGGDVFV | En_Gibbs | nd | 0 of 6 | 1 of 18 |
| GFTLNWYGIS | VIYSDGRRTFYGDAVK | GRAAGTFDS | Ctrl | nd | 0 of 6 | 1 of 18 |
| GFTLNEYGIS | VIYSDGRRTFYGDSVK | GRVAGTFDK | GPLM_Gen | 0.32 | 6 of 6 | 0 of 18 |
| GFNLNSYGIS | VIYSDGRRTFYGDAVK | GKIAGTFDS | GP_Gibbs | 1.11 | 6 of 6 | 0 of 18 |
| GFSLNSYGIS | VIYADGRRTFYGDRVK | GEAAGTFDK | GP_Gibbs | -0.35 | 6 of 6 | 0 of 18 |
| GFDLDEYGIS | VIYADGRRTFYADSVK | GEVAGTFDI | En_HC | -0.30 | 6 of 6 | 2 of 18 |

Second part, the sequence after the result:

| log10 Kd (nM), mean | detected | signal with controls | CDR-H1 | CDR-H2 | CDR-H3 | group |
|---|---|---|---|---|---|---|
| nd | 0 of 6 | 0 of 18 | GFNLDEYGIS | VIYADGQRTAYAKHVK | GTGGMKRVV | En_Gibbs |
| 1.58 | 6 of 6 | 1 of 18 | GFDLNSYGIS | VIYSDGRRTFYADSVK | GRTAGTFDF | GP_Gen |
| nd | 0 of 6 | 0 of 18 | GNTLNSYGIS | VIYSDGRRTFYGGKVK | GLAAGTFDS | Ctrl |
| -0.50 | 6 of 6 | 0 of 18 | GFDLNEYGIS | VIYADGQRTFYSDSVK | GNQAGTFDS | En_HC |
| 1.46 | 1 of 6 | 0 of 18 | GKTLNSYGIS | VIYADGRRTFYGDSVK | GRTAGTFDS | GPLM_Gen |
| nd | 0 of 6 | 0 of 18 | GFTLNEYGIS | VIYSDGRRTFYGDSVK | GRAAKTFKQ | Rand |
| nd | 0 of 6 | 0 of 18 | GFNLDEYGVS | VIYADGVRTAYVSKVK | GQLGWNLLM | En_Gibbs |
| nd | 0 of 6 | 0 of 18 | GFTLNSYGGS | VIYSDGRGTSYGDSVK | GRAAGPFTS | Ctrl |
| 0.57 | 6 of 6 | 0 of 18 | GFDLNEYGIS | VIYADGVRTFYADSVK | GEVAGTFDQ | En_Gen |
| -0.02 | 6 of 6 | 0 of 18 | SFSLDDYGIS | VIYADGLRKAYVDEVK | GYVAGTFDE | En_Gibbs |
| 1.76 | 3 of 6 | 0 of 18 | GFDLNSYGIS | VIYSDGRRTFYGDQVK | GQTAGTFDC | GP_Gibbs |
| 1.29 | 1 of 6 | 0 of 18 | GNTLNSYGIS | VIYSDGRRTHYGDSVK | GRAAGTFDS | Ctrl |
| 0.02 | 6 of 6 | 0 of 18 | GFDLNEYGIS | VIYADGKRTAYQDSVK | GNQAGTFDV | En_Gen |
| nd | 0 of 6 | 0 of 18 | GEDLLEYGIS | VIYADGIRVMYTNQVK | GNVAGFFTL | En_Gibbs |
| 1.25 | 5 of 6 | 0 of 18 | GFHLNDYGIS | VIYSDGRRTFYIDSVK | GRVAGTFDS | GP_HC |
| nd | 0 of 6 | 0 of 18 | GFTLNSYGIS | VIYSDGRRTFNGDSVK | GRAAGSFDS | Ctrl |
| nd | 0 of 6 | 0 of 18 | GFDLNEYGIS | VIYADGMRTVYADSVK | GNNAGTFDM | En_Gen |
| 1.30 | 1 of 6 | 0 of 18 | GFTLNSQGIS | VIYSDGQRVFYGDSVK | GRAAGTFDS | Ctrl |
| -0.36 | 6 of 6 | 0 of 18 | GFDLNEYGIS | VIYADGVRTFYADSVK | GNEAGTFDV | En_Gen |
| nd | 0 of 6 | 0 of 18 | GFTINSYGIS | VIYSDGRRTSYTDSVK | GRLAGTFID | Ctrl |
| 0.93 | 6 of 6 | 0 of 18 | GFNLNSYGIS | VIYSDGRRTFYGDSVK | GSAAGTFDL | GP_Gibbs |
| -0.77 | 6 of 6 | 0 of 18 | GFDLNEYGIS | VIYADGMRTAYSDSVK | GSVAGTFDV | En_Gen |
| 2.96 | 1 of 6 | 1 of 18 | GFQLDEVGIS | VIYADGIRRAYASKVK | GGDGASFDL | En_Gibbs |
| 1.02 | 2 of 6 | 0 of 18 | GFTLNDYGIS | VIYSDGRRTWYIDSVK | GNAAGTFDS | GP_HC |